The record followed here is PMC8082182 (Frontiers in Pharmacology, 2021).

Molecules are shown by their SMILES. Like-named read-outs stand apart in the source and are kept apart here.

For this data set the following is noted: for AUC0–24, median: IQR not reported for n < 5.

Take `CN[C@H](CC(C)C)C(=O)N[C@H]1C(=O)N[C@@H](CC(N)=O)C(=O)N[C@H]2C(=O)N[C@H]3C(=O)N[C@H](C(=O)N[C@H](C(=O)O)c4cc(O)cc(O)c4-c4cc3ccc4O)[C@H](O)c3ccc(c(Cl)c3)Oc3cc2cc(c3O[C@@H]2O[C@H](CO)[C@@H](O)[C@H](O)[C@H]2O[C@H]2C[C@](C)(N)[C@H](O)[C@H](C)O2)Oc2ccc(cc2Cl)[C@H]1O` [vancomycin]: the “AUC0–24, median” value (Central nerve system, Not improved patients) is 200.1 µg·h/mL; the “AUC0–24, median” value (Pulmonary, Not improved patients) amounted to 213.1 µg·h/mL; the “AUC0–24, median” value (Urinary tract, Not improved patients) is 212.1 µg·h/mL. Further, the “AUC0–24, median (IQR)” value is, setting by setting: (Endocarditis, Improved patients) 213.4 (195.3, 239.1) hr*mg/L; (Overall, Not improved patients) 212.6 (204.20, 314.50) hr*mg/L.
